Laboratory results from paper PMC10293653 (International Journal of Biological Macromolecules, 2023).

Test system: DPP4
Details: virus infected cells

N[C@@H](CC(=O)N1CCn2c(nnc2C(F)(F)F)C1)Cc1cc(F)c(F)cc1F [Sitagliptin, sitagliptin]
cellular DPP4 enzymatic activity in infected cells: significantly reduced
